The values that follow come from PubChem BioAssay AID1438 (Sanford-Burnham Center for Chemical Genomics, 2008).

Protein sequences, listed by entry. Tags and fused reporters are not part of them.
UniProt Q01196, whole entry, looked up: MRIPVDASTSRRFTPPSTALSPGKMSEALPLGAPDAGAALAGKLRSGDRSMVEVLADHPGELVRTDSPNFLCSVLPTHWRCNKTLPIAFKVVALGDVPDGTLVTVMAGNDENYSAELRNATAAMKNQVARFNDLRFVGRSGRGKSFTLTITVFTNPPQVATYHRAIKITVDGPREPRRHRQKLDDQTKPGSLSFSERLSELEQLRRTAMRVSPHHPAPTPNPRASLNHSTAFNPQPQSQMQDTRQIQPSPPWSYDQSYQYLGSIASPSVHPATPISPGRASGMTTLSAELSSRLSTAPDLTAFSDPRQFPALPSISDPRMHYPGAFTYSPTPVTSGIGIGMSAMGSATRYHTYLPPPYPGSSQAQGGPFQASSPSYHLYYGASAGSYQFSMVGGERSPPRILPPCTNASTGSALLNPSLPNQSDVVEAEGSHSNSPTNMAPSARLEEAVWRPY
UniProt Q13951, whole entry, looked up: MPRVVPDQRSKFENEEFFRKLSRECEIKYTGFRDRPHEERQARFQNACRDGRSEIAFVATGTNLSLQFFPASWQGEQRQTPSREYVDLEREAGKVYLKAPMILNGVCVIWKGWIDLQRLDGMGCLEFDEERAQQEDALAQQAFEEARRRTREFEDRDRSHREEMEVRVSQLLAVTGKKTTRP

Usually inhibition stands for the drop in the measured response relative to a control, in per cent.

The structures appear in SMILES notation. This is a selection; strong and weak results do not stand in their true shares. Results with a measured potency or affinity are listed apart. The source made the active and inactive calls. No rule for the calls is given here.

This assay addresses Runt-related transcription factor 1 (Homo sapiens) + Core-binding factor subunit beta (Homo sapiens) (UniProt Q01196+Q13951). The assay can be described thus: inhibitors of RUNX1 Runt–CBFb-SMMHC binding, biochemical, TR-FRET (AID 1438). As to conditions: TR-FRET Runt domain–CBFb-SMMHC binding, at 20 µM, active compounds read high. Background: TR-FRET usually uses a lanthanide donor and a delayed reading to cut background.
As for `O=P(Nc1nccs1)(c1ccccc1)c1nc2ccccc2s1` (stereo unspecified), the inhibition was inactive: -3.3%.
